Biological target: Serine/threonine-protein kinase pim-1 (Homo sapiens, UniProt P11309)
Assay: Inhibition of PIM1

Sequences of proteins named here, by UniProt entry; tags and fusion partners are left off.
UniProt P11309, whole entry: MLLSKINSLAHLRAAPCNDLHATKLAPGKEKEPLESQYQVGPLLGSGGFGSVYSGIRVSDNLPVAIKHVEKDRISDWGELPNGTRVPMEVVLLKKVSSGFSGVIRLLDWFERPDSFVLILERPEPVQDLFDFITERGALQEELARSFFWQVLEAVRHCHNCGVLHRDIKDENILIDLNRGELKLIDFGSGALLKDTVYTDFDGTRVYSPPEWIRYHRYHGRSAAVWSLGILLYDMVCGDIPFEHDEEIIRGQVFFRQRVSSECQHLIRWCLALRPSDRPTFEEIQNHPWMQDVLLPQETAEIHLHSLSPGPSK

IC50: 50 nmol
SMILES: N#Cc1c(-c2ccccc2)cc(-c2cc(Br)ccc2O)[nH]c1=O

— ChEMBL document CHEMBL1154630, “Discovery of colon tumor cell growth inhibitory agents through a combinatorial approach” (Eur J Med Chem, 2010)
